From patent US20250017936A1, “CELL-POTENT BISUBSTRATE INHIBITORS FOR NICOTINAMIDE N-[…] (NNMT) AND USES THEREOF” (priority 2021, published 2025)

Assay: in vitro
Conditions: PAMPA, Permeability, Tables 1-3 and Example 6, ND = no detected permeability

## CC(=O)N(CC#Cc1ccc(Cl)c(C(N)=O)c1)C[C@H]1C[C@@H](n2ccc3c(Cl)ncnc32)[C@H](O)[C@@H]1O [II559, 2-chloro-5-(3-(N-(((1R,2R,3S,4R)-4-(4-chloro-7H-pyrrolo[2,3-d]pyrimidin-7-yl)-2,3-dihydroxycyclopentyl)methyl)acetamido)prop-1-yn-1-yl)benzamide]
  Papp: 0.06 ± 0.016 ×10⁻⁶ cm/s
